# Laboratory results from PubChem BioAssay (Tox21).
# The chains behind the UniProt entries cited, without tags or fusion partners.
# UniProt P10635, whole entry: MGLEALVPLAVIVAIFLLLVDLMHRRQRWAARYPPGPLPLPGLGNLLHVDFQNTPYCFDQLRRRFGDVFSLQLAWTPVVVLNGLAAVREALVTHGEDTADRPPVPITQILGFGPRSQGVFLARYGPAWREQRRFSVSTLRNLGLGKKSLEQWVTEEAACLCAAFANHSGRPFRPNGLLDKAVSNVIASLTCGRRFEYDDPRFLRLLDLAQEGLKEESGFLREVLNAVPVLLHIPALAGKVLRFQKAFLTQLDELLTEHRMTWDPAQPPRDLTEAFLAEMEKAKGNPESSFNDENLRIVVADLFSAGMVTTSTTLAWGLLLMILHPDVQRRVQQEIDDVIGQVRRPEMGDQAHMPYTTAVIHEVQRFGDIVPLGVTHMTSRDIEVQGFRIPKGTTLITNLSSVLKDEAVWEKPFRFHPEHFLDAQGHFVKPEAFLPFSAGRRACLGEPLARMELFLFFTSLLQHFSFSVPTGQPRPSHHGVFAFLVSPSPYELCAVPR
# UniProt P33261, whole entry: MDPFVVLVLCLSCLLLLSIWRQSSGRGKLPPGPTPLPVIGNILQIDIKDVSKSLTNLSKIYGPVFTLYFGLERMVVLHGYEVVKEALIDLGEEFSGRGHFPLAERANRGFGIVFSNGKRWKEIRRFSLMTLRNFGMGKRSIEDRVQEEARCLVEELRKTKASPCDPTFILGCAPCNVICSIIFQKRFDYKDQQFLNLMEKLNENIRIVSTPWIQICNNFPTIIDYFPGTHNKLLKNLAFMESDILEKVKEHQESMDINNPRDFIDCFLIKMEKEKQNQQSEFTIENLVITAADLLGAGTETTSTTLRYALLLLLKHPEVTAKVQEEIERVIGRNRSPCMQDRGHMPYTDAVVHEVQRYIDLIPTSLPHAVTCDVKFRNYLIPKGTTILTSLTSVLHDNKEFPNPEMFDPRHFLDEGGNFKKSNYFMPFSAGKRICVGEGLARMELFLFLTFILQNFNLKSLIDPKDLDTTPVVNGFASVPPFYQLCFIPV
# Several values for one entry are separate records, joined by “and”; a condition that tells them apart may be missing. A call without a number means that no potency is given here. Identical values can stand only once. Only a part is listed here, and it is no random draw. Results filed as inconclusive are left out. Where a structure was tested more than once in an assay, its records may differ in their call. Activity calls are given as the source filed them. Calls follow the shape of the dose curve; as a rule, active = well fitted inhibition curve with a large enough effect in the repeat runs; inconclusive = weak or mixed curves; inactive = no such curve, though single readings can be large or run the other way.
# Molecular target: Cytochrome P450 2D6 (Homo sapiens) (UniProt P10635)
# Assay: Cytochrome P450 Family 2 Subfamily D Member 6 (CYP2D6) small molecule antagonists: luciferase reporter qHTS assay (AID 1671196); also: nearly all actives have a fitted effect of over 50% in size
# Details: P450-Glo CYP2D6 enzyme assay, luciferin luminescence, 1 h; series mostly up to 115 µM
# In short: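 Room-temperature luminescent CYP2D6 activity assay: compound preincubated 10 min with enzyme–substrate mix, NADPH-initiated reaction 1 h, detection reagent 20 min before reading.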
# Potency is read from the fitted curve at half-maximal effect.
row,SMILES,Potency
1,Cc1cccc([N+](=O)[O-])c1[N+](=O)[O-],active: 53.3 µM
2,CC(C)N(CCO)C(C)C,inactive
3,O=[N+]([O-])c1cccc([N+](=O)[O-])c1,active: 66 µM
4,OCCSCCO,active: 32.2 µM and inactive
5,CC(C)OP(C)(=O)OC(C)C,inactive
6,Cc1ccc([N+](=O)[O-])cc1[N+](=O)[O-],active: 35.1 µM and inactive
7,O=[N+]([O-])OCC(CO[N+](=O)[O-])(CO[N+](=O)[O-])CO[N+](=O)[O-],inactive
8,N=C(N)N[N+](=O)[O-],inactive
9,C/C1=C2N=C(/C=C3N=C(/C(C)=C4\[N-][C@@](C)([C@@H]5N=C1[C@](C)(CCC(=O)NC[C@@H](C)OP(=O)([O-])O[C@H]1[C@@H](O)[C@@H](n6cnc7cc(C)c(C)cc76)O[C@@H]1CO)[C@H]5CC(N)=O)[C@@](C)(CC(N)=O)[C@@H]4CCC(N)=O)[C@@](C)(CC(N)=O)[C@@H]\3CCC(N)=O)C(C)(C)[C@@H]/2CCC(N)=O.[C-]#N.[Co+3],inactive
10,O=[N+]([O-])[O-].[NH4+],inactive
11,COc1ccc([N+](=O)[O-])cc1[N+](=O)[O-],inactive
12,CCOP(=O)(CC)Oc1ccc([N+](=O)[O-])cc1 (stereo not given),active: 3.09 µM
13,COP(C)(=O)OC,inactive
14,Cc1c([N+](=O)[O-])cccc1[N+](=O)[O-],inactive
15,Cc1ccc([N+](=O)[O-])c([N+](=O)[O-])c1,active: 36.3 µM
16,[NH4+].[O-][Cl+3]([O-])([O-])[O-],inactive
17,N#CBr,inactive
18,CCOP(=O)(CC)OCC,inactive
19,CN(C)CCCl,inactive
20,CP(=O)(O)OCCC[Si](O)(O)O,inactive

# Molecular target: Cytochrome P450 2C19 (Homo sapiens) (UniProt P33261)
# Assay: Cytochrome P450 Family 2 Subfamily C Member 19 (CYP2C19) small molecule antagonists: luciferase reporter qHTS assay (AID 1671197); also: nearly all actives have a fitted effect of over 65% in size
# Details: P450-Glo CYP2C19 enzyme, luciferin luminescence, 1 h; series mostly up to 115 µM
# In short: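 P450-Glo CYP2C19 system: enzyme-substrate mix with compound 10 min at room temperature, then NADPH regeneration solution, 1 h at 37C. Proluciferin-to-luciferin conversion detected by luminescence after 20 min with detection reagent; ketoconazole as positive control.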
row,SMILES,Potency
1,Cc1cccc([N+](=O)[O-])c1[N+](=O)[O-],active: 23.8 µM
2,CC(C)N(CCO)C(C)C,inactive
3,CCN(CC)CCCl,inactive
4,O=[N+]([O-])c1cccc([N+](=O)[O-])c1,inactive
5,OCCSCCO,active: 22.8 µM and inactive
6,CC(C)OP(C)(=O)OC(C)C,active: 22.5 µM and inactive
7,Cc1ccc([N+](=O)[O-])cc1[N+](=O)[O-],active: 35.1 µM and inactive
8,O=[N+]([O-])OCC(CO[N+](=O)[O-])(CO[N+](=O)[O-])CO[N+](=O)[O-],inactive
9,N=C(N)N[N+](=O)[O-],active: 88 µM
10,C/C1=C2N=C(/C=C3N=C(/C(C)=C4\[N-][C@@](C)([C@@H]5N=C1[C@](C)(CCC(=O)NC[C@@H](C)OP(=O)([O-])O[C@H]1[C@@H](O)[C@@H](n6cnc7cc(C)c(C)cc76)O[C@@H]1CO)[C@H]5CC(N)=O)[C@@](C)(CC(N)=O)[C@@H]4CCC(N)=O)[C@@](C)(CC(N)=O)[C@@H]\3CCC(N)=O)C(C)(C)[C@@H]/2CCC(N)=O.[C-]#N.[Co+3],inactive
11,CCOP(=O)(CC)Oc1ccc([N+](=O)[O-])cc1 (stereo not given),active: 3.47 µM
12,Nc1cc([N+](=O)[O-])cc([N+](=O)[O-])c1O,active: 40.8 µM
13,COP(C)(=O)OC,inactive
14,Cc1c([N+](=O)[O-])cccc1[N+](=O)[O-],inactive
15,Cc1ccc([N+](=O)[O-])c([N+](=O)[O-])c1,active: 40.8 µM
16,[NH4+].[O-][Cl+3]([O-])([O-])[O-],inactive and active: 39.9 µM
17,N#CBr,inactive
18,CCOP(=O)(CC)OCC,inactive
19,CN(C)CCCl,inactive
20,CP(=O)(O)OCCC[Si](O)(O)O,inactive
